# Results published in PubChem BioAssay AID2073 (Sanford-Burnham Center for Chemical Genomics, 2009).
# The chains behind the UniProt entries cited, without tags or fusion partners.
# UniProt Q00975, whole entry, looked up: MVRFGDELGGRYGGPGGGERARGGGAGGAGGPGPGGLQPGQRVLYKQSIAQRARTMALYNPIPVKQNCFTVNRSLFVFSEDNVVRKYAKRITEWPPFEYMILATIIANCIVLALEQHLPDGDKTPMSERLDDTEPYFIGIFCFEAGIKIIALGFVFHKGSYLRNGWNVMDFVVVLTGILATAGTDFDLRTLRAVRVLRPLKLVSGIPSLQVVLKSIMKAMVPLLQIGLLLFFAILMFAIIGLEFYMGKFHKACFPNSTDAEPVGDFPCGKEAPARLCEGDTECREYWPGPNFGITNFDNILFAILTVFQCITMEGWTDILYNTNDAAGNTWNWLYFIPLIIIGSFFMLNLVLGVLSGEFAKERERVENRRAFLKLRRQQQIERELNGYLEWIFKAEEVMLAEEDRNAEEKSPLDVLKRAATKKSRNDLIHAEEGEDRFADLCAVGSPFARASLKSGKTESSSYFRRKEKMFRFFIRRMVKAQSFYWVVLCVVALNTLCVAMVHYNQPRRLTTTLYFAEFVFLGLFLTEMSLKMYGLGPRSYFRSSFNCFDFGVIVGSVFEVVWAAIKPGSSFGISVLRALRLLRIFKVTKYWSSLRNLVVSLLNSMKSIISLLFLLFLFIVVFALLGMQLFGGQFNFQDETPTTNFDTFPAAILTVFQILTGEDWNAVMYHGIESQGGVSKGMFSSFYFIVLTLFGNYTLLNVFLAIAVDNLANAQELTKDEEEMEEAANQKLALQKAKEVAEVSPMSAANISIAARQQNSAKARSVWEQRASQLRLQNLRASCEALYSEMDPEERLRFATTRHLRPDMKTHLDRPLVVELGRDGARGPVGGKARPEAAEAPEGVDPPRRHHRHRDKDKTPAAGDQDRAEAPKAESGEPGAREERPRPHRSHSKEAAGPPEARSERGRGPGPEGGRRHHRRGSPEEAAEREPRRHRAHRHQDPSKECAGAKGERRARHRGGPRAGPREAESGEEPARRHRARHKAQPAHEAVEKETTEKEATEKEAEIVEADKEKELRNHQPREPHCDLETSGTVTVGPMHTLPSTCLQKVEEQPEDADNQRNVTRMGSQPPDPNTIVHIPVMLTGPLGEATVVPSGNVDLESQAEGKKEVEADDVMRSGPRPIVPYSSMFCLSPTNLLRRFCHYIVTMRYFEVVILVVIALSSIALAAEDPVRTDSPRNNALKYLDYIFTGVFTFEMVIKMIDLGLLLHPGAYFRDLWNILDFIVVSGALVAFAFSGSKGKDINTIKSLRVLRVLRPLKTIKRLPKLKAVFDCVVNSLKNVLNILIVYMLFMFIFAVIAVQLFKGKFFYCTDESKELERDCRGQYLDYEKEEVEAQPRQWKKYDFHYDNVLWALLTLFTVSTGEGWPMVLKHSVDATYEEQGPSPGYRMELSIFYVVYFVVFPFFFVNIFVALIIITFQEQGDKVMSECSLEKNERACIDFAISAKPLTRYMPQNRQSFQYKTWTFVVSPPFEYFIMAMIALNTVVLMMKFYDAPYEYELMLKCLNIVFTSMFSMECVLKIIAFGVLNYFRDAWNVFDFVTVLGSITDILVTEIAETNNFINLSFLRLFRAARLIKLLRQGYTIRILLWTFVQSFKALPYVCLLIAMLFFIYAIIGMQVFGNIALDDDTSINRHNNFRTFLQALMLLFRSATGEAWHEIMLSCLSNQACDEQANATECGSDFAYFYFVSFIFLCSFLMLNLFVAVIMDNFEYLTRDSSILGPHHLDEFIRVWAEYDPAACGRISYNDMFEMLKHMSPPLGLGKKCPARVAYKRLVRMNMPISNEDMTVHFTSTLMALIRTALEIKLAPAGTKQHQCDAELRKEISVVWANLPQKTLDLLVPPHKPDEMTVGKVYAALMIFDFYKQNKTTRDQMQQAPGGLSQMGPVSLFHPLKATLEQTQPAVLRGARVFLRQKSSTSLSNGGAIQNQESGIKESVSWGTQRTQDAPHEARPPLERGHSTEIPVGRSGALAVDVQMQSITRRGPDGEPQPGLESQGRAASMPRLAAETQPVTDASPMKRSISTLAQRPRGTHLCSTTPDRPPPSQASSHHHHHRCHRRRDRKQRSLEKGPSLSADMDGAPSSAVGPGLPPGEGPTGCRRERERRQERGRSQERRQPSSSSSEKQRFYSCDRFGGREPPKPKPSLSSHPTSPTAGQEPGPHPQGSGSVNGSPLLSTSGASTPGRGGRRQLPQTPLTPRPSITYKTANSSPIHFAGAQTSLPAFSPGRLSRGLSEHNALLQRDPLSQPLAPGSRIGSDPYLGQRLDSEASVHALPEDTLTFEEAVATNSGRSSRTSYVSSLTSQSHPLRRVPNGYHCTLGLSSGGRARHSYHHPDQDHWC
# Values joined by “and” are separate entries in the source; they are usually repeats but may differ in a detail not shown here. Identical values can stand only once. The entries are a selection whose mix differs from that of the whole data set. Potency and affinity values are given separately. Active and inactive are the calls of the source. No stated cut-off is given here; in the data, active means inhibition mostly above about 51% (no sharp cut-off); inconclusive means no clear call, values can overlap the other calls; inactive means mostly below about 53%.
# Molecular target: Voltage-dependent N-type calcium channel subunit alpha-1B (Homo sapiens) (UniProt Q00975)
# Experiment: inhibitors of Mint1-CaV2.2 protein interaction, biochemical, HTRF (AID 2073)
# Conditions: at 20 µM, hits give high values
row,SMILES,inhibition
1,Cc1ccc(N/C(=N/P(=O)(N2CCOCC2)N2CCOCC2)N2CCOCC2)cc1,inactive: -4.4%
2,NC(=O)c1cc([N+](=O)[O-])cc([N+](=O)[O-])c1N,inactive: 8.3%
3,Clc1ccc(Cl)c(NC2=NCC(CBr)S2)c1 (configuration not stated),inactive: -6.6%
4,CN1CCCC(OC(=O)C(c2ccccc2)c2ccccc2)C1 (configuration not stated),inactive: -12.1%
5,Cc1ccc(OP(=O)(Nc2nccs2)Oc2ccc(C)cc2)cc1,inactive: 2.3%
6,COc1ccccc1OP(=O)(Nc1ccc(C)cn1)Oc1ccccc1OC,inactive: 23.7%
7,Cc1c2non([O-])c-2c(C)[n+](=O)[n+]1[O-],inactive: 19.1%
8,O=C(NC(Sc1ccncn1)C(Cl)(Cl)Cl)c1ccccc1 (configuration not stated),inactive: -4.7%
9,Oc1ccccc1CNc1ccccn1,inactive: -2.1%
10,CC(C)CC(=O)NC(Sc1ccc(Cl)cc1)C(Cl)(Cl)Cl (configuration not stated),inactive: 30.8%
11,Nc1cc(N)c2nonc2c1[N+](=O)[O-],inactive: -6.3%
12,O=P(Nc1nc2ccc(Cl)cc2s1)(c1ccccc1)c1ccccc1,inactive: 15.3%
13,O=C(O)c1ccccc1[As](=O)(O)O,inactive: 12%
14,CC(=O)Nc1ccc([As](=O)(O)O)cc1,inactive: 10.6%
15,Cc1ccc(NP(=O)(Oc2ccccc2F)Oc2ccccc2F)nc1,inactive: 6.9%
16,CCOP(=O)(Nc1ccccc1)OCC,inactive: -2.9% and inactive: 3.5%
17,Cc1cc(SC(NC(=O)c2ccc(F)cc2)C(Cl)(Cl)Cl)ncn1 (configuration not stated),inactive: 12.5%
18,O=[N+]([O-])c1cc([N+](=O)[O-])c(CCN2CCOCC2)c([N+](=O)[O-])c1,inactive: 12.5%
19,Nc1cccc2ccc([As](=O)(O)O)cc12,inactive: 14.8%
20,CCN(N=Nc1nonc1N)c1nonc1N,inactive: -2.8%
21,O=C(Nc1cc([As](=O)(O)O)ccc1O)c1ccccc1,inactive: 19.5%
22,O=[N+]([O-])c1ncn(CCn2ncnc2[N+](=O)[O-])n1,inactive: 7.6%
23,CC(C)(C)C(=O)NC(Sc1ccncn1)C(Cl)(Cl)Cl (configuration not stated),inactive: -21.2%
24,O=C(O)CNc1ccc([As](=O)(O)O)cc1,inactive: 19.8%
25,O=[N+]([O-])c1cccc(NC2=NCC(CBr)S2)c1 (configuration not stated),inactive: -6.7%
26,COc1ccc(C2=NCC(CBr)S2)cc1 (configuration not stated),inactive: -38.4%

row,SMILES,inhibition
1,O=[N+]([O-])c1cc([N+](=O)[O-])c(CCNc2ccccc2)c([N+](=O)[O-])c1,inactive: 7%
2,CCc1nc2c(n1)c1c(non1O)c1c2no[n+]1[O-],inactive: -8.2%
3,Cc1ccc(NP(=O)(Oc2ccccc2)Oc2ccccc2)nc1,inactive: 2.8%
4,CC(=O)N1C2C3N(C(C)=O)C1C1N(C(C)=O)C(C(N1C(C)=O)N3C(C)=O)N2C(C)=O,inactive: -3.8%
5,O=[N+]([O-])c1cccc2n[nH]nc12,inactive: 3.3%
6,CCN(/C(=N/P(=O)(N1CCOCC1)N1CCOCC1)N1CCOCC1)c1ccc(OC)cc1,inactive: -1.1%
7,C[N+]1=C2C=CC=CC=C2SC12C([N+](=O)[O-])=CC([N+](=O)[O-])=C[C-]2[N+](=O)[O-] (configuration not stated),inactive: 17.9%
8,Nc1ccc([As](=O)(O)c2ccc(N)cc2)cc1,inactive: 6.1%
9,CC1CCN(C(=O)Oc2c(Cl)cc(Cl)c3cccnc23)CC1,inactive: -4.7%
10,CN(C)C(=O)OCCc1n(C)cc[n+]1C,inactive: 5.4%
11,CC(C)=N/N=C(\N)N[N+](=O)[O-],inactive: -14.6%
12,O=P(Nc1nccs1)(c1ccccc1)c1ccccc1,inactive: 0.3%
13,CC(C)C(=O)NC(Sc1ccccc1)C(Cl)(Cl)Cl (configuration not stated),inactive: -4.3%
14,c1nnnn1CCn1cnnn1,inactive: -0.3%
15,CN(C)C1(CNC(=O)c2ccc(Cl)c(S(N)(=O)=O)c2)CCCCC1,inactive: 2%
16,O=P(Nc1ccccn1)(c1ccc(Br)cc1)c1ccc(Br)cc1,inactive: 6.1%
17,C[C@H]1OP(=O)(Oc2ccccc2)[C@H](O)[C@H](O)[C@H]1N=[N+]=[N-] (some centres not stated),inactive: -4.7%
18,O=P(Nc1nc2ccccc2s1)(c1ccccc1)c1ccccc1,inactive: -7.5%
19,O=[As](O)(c1ccccc1)c1ccc(O)cc1,inactive: 6.1%
20,O=[N+]([O-])c1ncn(CCn2cnc([N+](=O)[O-])n2)n1,inactive: 0.4%
21,CC(=O)NC(SC(=S)N(C)C)C(Cl)(Cl)Cl (configuration not stated),inactive: -10.8%
22,O=[N+]([O-])c1ccc(O)c(/C=N/Nc2ccc([N+](=O)[O-])cc2[N+](=O)[O-])c1,inactive: 3.7%
23,O=C(OC1CN2CCC1CC2)c1cccc(Cl)c1 (configuration not stated),inactive: 8.3%
24,Nc1ccc([As](=O)(O)c2ccc([N+](=O)[O-])cc2)cc1,inactive: -3%
25,C(Cc1nn[nH]n1)Cc1nn[nH]n1,inactive: -2.4%
26,CCOC(=O)NC(Sc1ccccc1)C(Cl)(Cl)Cl (configuration not stated),inactive: -27.1%

row,SMILES,inhibition
1,Cc1ccc(NP(=O)(Oc2cccc(C)c2)Oc2cccc(C)c2)nc1,inactive: 10.6%
2,c1ccc(-c2nn[nH]n2)c(-c2nn[nH]n2)c1,inactive: -4.2%
3,O=C(NC1CCS(=O)(=O)C1)NP(=S)(Oc1ccccc1)Oc1ccccc1 (configuration not stated),inactive: -13.3%
4,CCNC(=S)/N=C(\N)N[N+](=O)[O-],inactive: -4%
5,CCC(=O)N1C2C3N(C(=O)CC)C1C1N(C(=O)CC)C(C(N1C(=O)CC)N3C(=O)CC)N2C(=O)CC,inactive: -5.5%
6,O=C(OC1CN2CCC1CC2)c1ccccc1 (configuration not stated),inactive: 15.8%
7,Cc1ccc(OP(=O)(Nc2ccccn2)Oc2ccc(C)cc2)cc1,inactive: -15.9%
8,CC(=O)NC(SC(=S)N(CC(C)C)CC(C)C)C(Cl)(Cl)Cl (configuration not stated),inactive: -12.1%
9,COC(=O)c1cc2c(s1)N=C(c1ccccc1)N(C)P2(=O)N1CCOCC1 (configuration not stated),inactive: 8.1%
10,CN(C)C(=O)Oc1noc2ccccc12,inactive: 9.3%
11,O=c1c2cc([N+](=O)[O-])ccc2[nH]c2c([N+](=O)[O-])cc([N+](=O)[O-])cc12,inactive: 1.1%
12,Cc1ccccc1OP(=O)(Nc1ccccn1)Oc1ccccc1C,inactive: 7.4%
13,CCOc1ccc(C2=NCC(CBr)S2)cc1 (configuration not stated),inactive: -14.7%
14,O=P1(Nc2nc3ccc(Cl)cc3s2)COc2ccccc2O1 (configuration not stated),inactive: 1.2%
15,CC(C)(C)C(=O)NC(Sc1ccccc1)C(Cl)(Cl)Cl (configuration not stated),inactive: -9.1%
16,C[C@@H]1C=CCP(=O)(Oc2ccccc2)O1 (some centres not stated),inactive: 7.8%
17,C[C@H]1OP(=O)(Oc2ccccc2)C[C@@H]2O[C@@H]21 (some centres not stated),inactive: 10.8%
18,CC(=O)Nc1ccc(Oc2c([N+](=O)[O-])cc([N+](=O)[O-])cc2[N+](=O)[O-])cc1,inactive: 3.4%
19,CC(=O)Nc1ccc([As](=O)(O)O)c(O)c1,inactive: 6.7%
20,O=C(OC1CN2CCC1CC2)c1ccc(Cl)cc1 (configuration not stated),inactive: 10.1%
21,CS(=O)(=O)c1ccc(Cl)c(NC(=O)COC(=O)C(O)(c2ccccc2)c2ccccc2)c1,inactive: 8.4%
22,COc1cc(C(=O)NCC2(N3CCOCC3)CCCCC2)cc(Cl)c1OC(C)C,inactive: 1.2%
23,O=[As](O)(O)c1cccnc1,inactive: 9.2%
24,Cc1cccc(OCC(=O)OC2CN3CCC2CC3)c1 (configuration not stated),inactive: -1.7%
25,Cc1ccc(NCCc2c([N+](=O)[O-])cc([N+](=O)[O-])cc2[N+](=O)[O-])cc1,inactive: 30.7%
26,CCCOP(=S)(Nc1nc(N)cc(=O)[nH]1)OCCC,inactive: 10.4%

row,SMILES,inhibition
1,CCOP(=O)(Nc1cccc2ccccc12)OCC,inactive: 1.3%
2,COc1cc(C2NCCC3(OCCO3)C2(C)C)cc(OC)c1OC (configuration not stated),inactive: -9%
3,O=P(Nc1nccs1)(c1ccccc1)c1nc2ccccc2s1 (configuration not stated),inactive: 10.1%
4,O=P(Nc1nccs1)(Oc1ccccc1)Oc1ccccc1,inactive: -5.4%
5,CCOP1(=S)c2c(C)nn(CCC#N)c2N=C(c2ccccc2F)N1C (configuration not stated),inactive: 2.5%
6,CS(=O)(=O)c1cc([N+](=O)[O-])c2no[n+]([O-])c2c1,inactive: -20.4%
7,O=C(O)COc1ccc([As](=O)(O)O)cc1[N+](=O)[O-],inactive: 15.4%
8,Nc1ccccc1[As](=O)(O)c1ccccc1,inactive: 2.3%
9,NC(=O)Nc1ccc([As](=O)(O)O)cc1,inactive: 3.5%
10,CCOP1(=S)c2c(C)nn(CCC#N)c2N=C(c2ccc(F)cc2)N1C (configuration not stated),inactive: -0.8%
11,CN(C(=O)Cc1ccccc1)[C@@H]1CC[C@]2(CCCO2)C[C@H]1N1CCCC1,inactive: 18%
12,O=[N+]([O-])c1ccc2c(c1)nnn2O,inactive: -0.7%
13,Cc1ccc(C(=O)OC2CN3CCC2CC3)cc1 (configuration not stated),inactive: 12.6%
14,CC1CCC(C(C)C)C(OP(=O)(Nc2ccccn2)c2ccccc2)C1 (configuration not stated),inactive: -0.4%
15,Cc1nn(-c2ccccc2)c2c1P(=O)(N1CCOCC1)N(C)C(c1ccccc1)=N2 (configuration not stated),inactive: 10.1%
16,CN(C)C1(CNC(=O)c2ccc(S(C)(=O)=O)cc2)CCCCC1,inactive: 5.4%
17,O=C(/C=C/c1ccccc1)OC1CN2CCC1CC2 (configuration not stated),inactive: -5%
18,O=P1(Nc2ncccn2)COc2ccccc2OC1,inactive: 24.7%
19,Nc1cccc([As](=O)(O)c2ccccc2)c1,inactive: 4.6%
20,O=P1(Nc2ccc(Br)cn2)COc2ccccc2OC1,inactive: 0.8%
21,O=[As](O)(c1cccs1)c1cccs1,inactive: 12.6%
22,Cc1ccc(OCC(=O)OC2CN3CCC2CC3)cc1 (configuration not stated),inactive: 5%
23,CCOP(=O)(NC(=NC(C)c1ccccc1)NC(C)c1ccccc1)OCC (configuration not stated),inactive: 2.3%
24,CCC1=CC2Cc3nc4ccc(Cl)cc4c(N)c3C(C1)C2 (configuration not stated),inactive: 3.7%
